From patent US20250003968A1, “ACTIVITY-BASED CELL SORTING” (MASSACHUSETTS INSTITUTE OF TECHNOLOGY, priority 2021, published 2025) come the findings set out here.

The test system of the assay is Eml4-Alk tumors. The assay is described as follows: Alectinib treatment in the Eml4-Alk model (lung histology). The settings on record: two-week treatment course, 20 mg/kg daily oral gavage. Type of assay: in vivo, mouse.

As for `CCc1cc2c(cc1N1CCC(N3CCOCC3)CC1)C(C)(C)c1[nH]c3cc(C#N)ccc3c1C2=O` [alectinib], the tumor regression entry is “rapid and robust tumor regression”.
